Results as given in patent publication US12139488B2, “Pyrido[3,2-d]pyrimidine compounds uses thereof for treating a proliferative disease” (Universite de Montreal, priority 2021, dated 2024).
pIC50: −log10 of the molar value.

Test system: pERK in HCT-116 cells (KRAS G13D)
Experiment: Phospho-ERK inhibition (AlphaLISA SureFire Ultra p-ERK 1/2), HCT116
Conditions: lowest % inhibition value of the IC50 curve, HCT116
Experimental: All cancer cell lines (A375, A101D, A2058, RKO, HT29 SK-MEL 30, IPC298, HepG2, HCT-116, Lovo, SWV620, SW480, NCI-H358, NCI-H2122, Calu-6, NCIH2087, NCIH1755, NCIH1666 and Mewo) were obtained from ATCC and cultured in RPMI-1640 medium (Gibco) supplemented with 5% heat inactivated fetal bovine serum (FBS, Wisent) at 37° C. under 5% CO2. Cells were maintained in T175 flasks (Greiner). They were passaged by removing the culture medium, washing once in 10 mL of room temperature Phosphate Buffered Saline (PBS; Wisent) and incubating at 37° C. with 2 mL of 0.05% Trypsin (Thermo-Fisher). Trypsin was then inactivated by adding complete growth medium and the cells were then replated in a T175 culture dish at the appropriate dilution. All cell lines were routinely tested for mycoplasma contamination. Tissue type and mutational status of each cell line can be found in Table B.
AlphaLISA® SureFire® Ultra™ p-ERK 1/2 (Thr202/Tyr204) analysis was conducted on cells plated in 100 μL of complete RPMI-1640 growth medium in 96-well flat-bottomed transparent dishes (Costar) at a density indicated in Table C. Cells were maintained overnight at 37° C. under 5% CO2 before treatment with compounds' dilution series for one hour. The cell density in cells/cm^2 corresponds to cell number divided by the area of one well of a 96-well plate ([…]).
In a dilution series 100 μL/well of test substance dilution prepared in complete RPMI-1640 growth media was added to the cells. The dilution series is selected so that ten concentrations cover a range from 10 μM to 0.33 nM. If necessary the initial concentration of 10 μM is increased to 100 μM or lowered to 1 μM (as in the case of A375 and H1666 cells, which are generally more sensitive to the compounds) and further dilution is carried out accordingly. The final concentration of DMSO in the assay is set at 0.5%.
After treatment, media was removed and cells were lysed in 50 μL of 1× AlphaScreen Ultra Lysis Buffer (Perkin Elmer). The AlphaLISA® SureFire® Ultra™ p-ERK 1/2 (Thr202/Tyr2O4) (PerkinElmer) reactions were performed with 5 μL of cell lysate according to the manufacturer's specifications in 384-well proxyplates (Perkin Elmer) followed by overnight incubation of the reactions at room temperature in a humidified chamber. After completion of the reactions, the signals were recorded on an EnVision plate reader (Perkin Elmer) using built in AlphaLISA® settings.
The effect of each compound dilution on the pERK signal was expressed in % inhibition and calculated as follows. An internal 100% inhibition control ([…] trametinib, cat #HY-10999; MedChem Express; CAS #871700-17-3) was included in each plate and used as a measure of pERK background. First, the value obtained for trametinib was subtracted from each data point. The average of DMSO (vehicle) controls (set as 0% inhibition) was established and used to calculate % inhibition: % inhibition=100*(1-((pERK signalcompound)/(pERK signalDMSO)))
The ability of each compound to inhibit pERK signal was expressed as an IC50 value obtained by plotting the inhibition values for each data point of a dilution series and fitting the obtained curves using a log(agonist) versus response-variable slope (four parameters) function using GraphPadPrism (V7.0) or Dotmatics Screening Ultra platform.
When present, paradoxical pERK induction is inferred from the negative % inhibition values observed in the pERK IC50 curves of a compound.

Structure (SMILES)	HCT116 pERK Ymin % [%]
Cc1ccc(S(=O)(=O)Nc2ccc(F)c(Nc3ncnc4ccc(-n5cnc6ccccc65)nc34)c2F)c(Cl)c1	−2.0

Same assay, conditions: read-out: HCT116 pERK IC50; HCT116 cells; class symbol

Structure (SMILES)	pIC50
Cc1ccccc1S(=O)(=O)Nc1ccc(F)c(Nc2ncnc3ccc(-n4cnc5c(N)cccc54)nc23)c1F	> 6.30
O=S(=O)(Nc1ccc(F)c(Nc2ncnc3ccc(-n4cc(S(=O)(=O)C5CCN(Cc6ncc[nH]6)CC5)c5ccccc54)nc23)c1F)c1cccc(Cl)c1Cl	5.00 to 6.00
CN(CC(F)F)S(=O)(=O)c1cn(-c2ccc3ncnc(Nc4c(F)ccc(NS(=O)(=O)c5cccc(Cl)c5Cl)c4F)c3n2)c2ccccc12	> 6.30
Cc1c(F)cccc1S(=O)(=O)Nc1ccc(F)c(Nc2ncnc3ccc(-n4cc(C(=O)N(C)CC(C)(C)O)c5ccccc54)nc23)c1F	> 6.30
O=S(=O)(Nc1ccc(F)c(Nc2ncnc3ccc(-n4cnc5c(N6CCOCC6)cccc54)nc23)c1F)c1cccc(Cl)c1Cl	> 6.30
CC(C)S(=O)(=O)c1cn(-c2ccc3ncnc(Nc4c(F)ccc(NS(=O)(=O)c5cccc(Cl)c5Cl)c4F)c3n2)c2ccccc12	> 6.30
O=S(=O)(Nc1ccc(F)c(Nc2ncnc3ccc(-n4cc(S(=O)(=O)N[C@H]5C[C@H](O)C5)c5ccccc54)nc23)c1F)c1cccc(Cl)c1Cl (relative stereo)	6.00 to 6.30
COc1ccc(S(=O)(=O)Nc2ccc(F)c(Nc3ncnc4ccc(-n5cnc6c(N)cccc65)nc34)c2F)c(C)c1Cl	> 6.30
CN(c1ccccc1F)S(=O)(=O)c1cn(-c2ccc3ncnc(Nc4c(F)ccc(NS(=O)(=O)c5cccc(Cl)c5Cl)c4F)c3n2)c2ccccc12	5.00 to 6.00
Cc1c(F)cccc1S(=O)(=O)Nc1ccc(F)c(Nc2ncnc3ccc(-n4nc(C(=O)N(C)CCN5CCOCC5)c5ccccc54)nc23)c1F	> 6.30
COc1ccc(S(=O)(=O)Nc2ccc(F)c(Nc3ncnc4ccc(-n5cc(S(C)(=O)=O)c6ccccc65)nc34)c2F)cc1	> 6.30
O=S(=O)(Nc1ccc(F)c(Nc2ncnc3ccc(-n4cnc5c(Cl)cncc54)nc23)c1F)c1cccc(Cl)c1Cl	5.00 to 6.00
Cn1ccnc1CN1CCC(S(=O)(=O)c2cn(-c3ccc4ncnc(Nc5c(F)ccc(NS(=O)(=O)c6cccc(Cl)c6Cl)c5F)c4n3)c3ccccc23)CC1	> 6.30
O=S(=O)(Nc1ccc(F)c(Nc2ncnc3ccc(-c4cnn5c4CCCC5)nc23)c1F)c1cccc(Cl)c1Cl	5.00 to 6.00
CC1(CO)CCN(c2cccc3c2ncn3-c2ccc3ncnc(Nc4c(F)ccc(NS(=O)(=O)c5cccc(Cl)c5Cl)c4F)c3n2)CC1	> 6.30
CCN(CCOC)S(=O)(=O)c1cn(-c2ccc3ncnc(Nc4c(F)ccc(NS(=O)(=O)c5cccc(Cl)c5Cl)c4F)c3n2)c2ccccc12	> 6.30
CS(=O)(=O)c1cn(-c2ccc3ncnc(Nc4c(F)ccc(NS(=O)(=O)c5cccc(Cl)c5Cl)c4F)c3n2)c2cccc(N)c12	> 6.30
O=C1CCCc2c1ccn2-c1ccc2ncnc(Nc3c(F)ccc(NS(=O)(=O)c4cccc(Cl)c4Cl)c3F)c2n1	5.00 to 6.00
Cc1c(F)cccc1S(=O)(=O)Nc1ccc(F)c(Nc2ncnc3ccc(-n4nc(C(=O)N(C)Cc5ccncc5)cc4C)nc23)c1F	> 6.30
Cc1c(F)cccc1S(=O)(=O)Nc1ccc(F)c(Nc2ncnc3ccc(-n4nc(C(=O)N(C)Cc5ccncn5)c5ccccc54)nc23)c1F	> 6.30
O=S(=O)(Nc1ccc(F)c(Nc2ncnc3ccc(-n4cc(S(=O)(=O)N5C6CCC5COC6)c5ccccc54)nc23)c1F)c1cccc(Cl)c1Cl	5.00 to 6.00
Cc1c(F)cccc1S(=O)(=O)Nc1ccc(F)c(Nc2ncnc3ccc(-n4cnc(CCO)c4)nc23)c1F	5.00 to 6.00
O=S(=O)(Cc1ccccc1F)c1cn(-c2ccc3ncnc(Nc4c(F)ccc(NS(=O)(=O)c5cccc(Cl)c5Cl)c4F)c3n2)c2ccccc12	5.00 to 6.00

Structure (SMILES)	pIC50
CC(C)(O)C1CN(c2cccc3c2ncn3-c2ccc3ncnc(Nc4c(F)ccc(NS(=O)(=O)c5cccc(Cl)c5Cl)c4F)c3n2)C1	> 6.30
N#Cc1cn(-c2ccc3ncnc(Nc4c(F)ccc(NS(=O)(=O)c5cccc(Cl)c5Cl)c4F)c3n2)c2ccccc12	6.00 to 6.30
O=C(c1cccs1)c1cn(-c2ccc3ncnc(Nc4c(F)ccc(NS(=O)(=O)c5cccc(Cl)c5Cl)c4F)c3n2)c2ccccc12	5.00 to 6.00
COCCN(C)S(=O)(=O)c1cn(-c2ccc3ncnc(Nc4c(F)ccc(NS(=O)(=O)c5cccc(F)c5C)c4F)c3n2)c2ccccc12	> 6.30
CN(CCc1ccccn1)S(=O)(=O)c1cn(-c2ccc3ncnc(Nc4c(F)ccc(NS(=O)(=O)c5cccc(Cl)c5Cl)c4F)c3n2)c2ccccc12	> 6.30
O=S(=O)(Nc1ccc(F)c(Nc2ncnc3ccc(-n4nccn4)nc23)c1F)c1cccc(Cl)c1Cl	5.00 to 6.00
O=S(=O)(Nc1ccc(F)c(Nc2ncnc3ccc(-n4cc(S(=O)(=O)N5CCC[C@H](O)C5)c5ccccc54)nc23)c1F)c1cccc(Cl)c1Cl	> 6.30
Cc1c(F)cccc1S(=O)(=O)Nc1ccc(F)c(Nc2ncnc3ccc(-n4cc(S(=O)(=O)N5CCC(CO)CC5)c5ccccc54)nc23)c1F	> 6.30
Cc1ncc(-c2ccc3ncnc(Nc4c(F)ccc(NS(=O)(=O)c5cccc(Cl)c5Cl)c4F)c3n2)s1	> 6.30
Cc1c(F)cccc1S(=O)(=O)Nc1ccc(F)c(Nc2ncnc3ccc(-n4nc(C(=O)N5C[C@@H]6CC5CN6)c5ccccc54)nc23)c1F	6.00 to 6.30
O=C(c1cn(-c2ccc3ncnc(Nc4c(F)ccc(NS(=O)(=O)c5cccc(Cl)c5Cl)c4F)c3n2)c2ccc(Cl)cc12)N1C2CCC1COC2	6.00 to 6.30
O=S(=O)(Nc1ccc(F)c(Nc2ncnc3ccc(-n4cc(S(=O)(=O)N5CCC(O)CC5)c5ccccc54)nc23)c1F)c1cccc(Cl)c1Cl	> 6.30
Cc1cccc2c1ncn2-c1ccc2ncnc(Nc3c(F)ccc(NS(=O)(=O)c4cccc(Cl)c4Cl)c3F)c2n1	6.00 to 6.30
CN(C)[C@@H]1CCN(S(=O)(=O)c2cn(-c3ccc4ncnc(Nc5c(F)ccc(NS(=O)(=O)c6cccc(Cl)c6Cl)c5F)c4n3)c3ccccc23)C1	> 6.30
CCN(CC)CCN(C)S(=O)(=O)c1cn(-c2ccc3ncnc(Nc4c(F)ccc(NS(=O)(=O)c5cccc(Cl)c5Cl)c4F)c3n2)c2ccccc12	> 6.30
COCCC(=O)Nc1cn(-c2ccc3ncnc(Nc4c(F)ccc(NS(=O)(=O)c5cccc(Cl)c5Cl)c4F)c3n2)c2ccccc12	5.00 to 6.00
CC(C)(C)OC(=O)C(C)(C)S(=O)(=O)c1cn(-c2ccc3ncnc(Nc4c(F)ccc(NS(=O)(=O)c5cccc(Cl)c5Cl)c4F)c3n2)c2ccccc12	6.00 to 6.30
Cc1c(F)cccc1S(=O)(=O)Nc1ccc(F)c(Nc2ncnc3ccc(-n4cc(S(=O)(=O)N5CCN(C)CC5)c5ccccc54)nc23)c1F	> 6.30
Cc1c(F)cccc1S(=O)(=O)Nc1ccc(F)c(Nc2ncnc3ccc(-n4nc(C(=O)N(C)Cc5ncccn5)c5ccccc54)nc23)c1F	> 6.30
Cc1c(F)cccc1S(=O)(=O)Nc1ccc(F)c(Nc2ncnc3ccc(-n4nc(C(=O)NCC(C)(C)O)c5ccccc54)nc23)c1F	6.00 to 6.30
CN1CCN(c2cccc3c2ncn3-c2ccc3ncnc(Nc4c(F)ccc(NS(=O)(=O)c5cccc(Cl)c5Cl)c4F)c3n2)CC1	> 6.30
O=S(=O)(Nc1ccc(F)c(Nc2ncnc3ccc(-n4cc(S(=O)(=O)N5CC(C(F)F)C5)c5ccccc54)nc23)c1F)c1cccc(Cl)c1Cl	> 6.30
O=S(=O)(Nc1ccc(F)c(Nc2ncnc3ccc(-n4cnc5c(N6CCC(F)(CO)CC6)cccc54)nc23)c1F)c1cccc(Cl)c1Cl	> 6.30

Same assay, conditions: read-out: HCT116 pERK IC50; HCT116 cells; class symbol; tested form: formate

Structure (SMILES)	pIC50
Cc1c(F)cccc1S(=O)(=O)Nc1ccc(F)c(Nc2ncnc3ccc(-n4nc(C(=O)N5CC6CCC5CN6)c5ccccc54)nc23)c1F (stereo not shown)	> 6.30

Same assay, conditions: read-out: HCT116 pERK IC50 in μM; HCT116 cells, 1 h treatment

Structure (SMILES)	IC50 [µM]
Cc1ccc(S(=O)(=O)Nc2ccc(F)c(Nc3ncnc4ccc(-n5cnc6ccccc65)nc34)c2F)c(Cl)c1	1 to 10
